This test deals with human ACC2 (Homo sapiens (Human), UniProt O00763). Nature of the test: ACC2 assay (spectrophotometric 384 well assay, NADH-linked kinetic method). The test is classed as biochemical. To be noted: hACC2 construct lacking the 128 N-terminal amino acids; 25° C., 340 nm over 15 minutes.

Amino acid sequences for entries named in this document (tags omitted). Residues count along the entry.
UniProt O00763, 129-2458 limits assumed: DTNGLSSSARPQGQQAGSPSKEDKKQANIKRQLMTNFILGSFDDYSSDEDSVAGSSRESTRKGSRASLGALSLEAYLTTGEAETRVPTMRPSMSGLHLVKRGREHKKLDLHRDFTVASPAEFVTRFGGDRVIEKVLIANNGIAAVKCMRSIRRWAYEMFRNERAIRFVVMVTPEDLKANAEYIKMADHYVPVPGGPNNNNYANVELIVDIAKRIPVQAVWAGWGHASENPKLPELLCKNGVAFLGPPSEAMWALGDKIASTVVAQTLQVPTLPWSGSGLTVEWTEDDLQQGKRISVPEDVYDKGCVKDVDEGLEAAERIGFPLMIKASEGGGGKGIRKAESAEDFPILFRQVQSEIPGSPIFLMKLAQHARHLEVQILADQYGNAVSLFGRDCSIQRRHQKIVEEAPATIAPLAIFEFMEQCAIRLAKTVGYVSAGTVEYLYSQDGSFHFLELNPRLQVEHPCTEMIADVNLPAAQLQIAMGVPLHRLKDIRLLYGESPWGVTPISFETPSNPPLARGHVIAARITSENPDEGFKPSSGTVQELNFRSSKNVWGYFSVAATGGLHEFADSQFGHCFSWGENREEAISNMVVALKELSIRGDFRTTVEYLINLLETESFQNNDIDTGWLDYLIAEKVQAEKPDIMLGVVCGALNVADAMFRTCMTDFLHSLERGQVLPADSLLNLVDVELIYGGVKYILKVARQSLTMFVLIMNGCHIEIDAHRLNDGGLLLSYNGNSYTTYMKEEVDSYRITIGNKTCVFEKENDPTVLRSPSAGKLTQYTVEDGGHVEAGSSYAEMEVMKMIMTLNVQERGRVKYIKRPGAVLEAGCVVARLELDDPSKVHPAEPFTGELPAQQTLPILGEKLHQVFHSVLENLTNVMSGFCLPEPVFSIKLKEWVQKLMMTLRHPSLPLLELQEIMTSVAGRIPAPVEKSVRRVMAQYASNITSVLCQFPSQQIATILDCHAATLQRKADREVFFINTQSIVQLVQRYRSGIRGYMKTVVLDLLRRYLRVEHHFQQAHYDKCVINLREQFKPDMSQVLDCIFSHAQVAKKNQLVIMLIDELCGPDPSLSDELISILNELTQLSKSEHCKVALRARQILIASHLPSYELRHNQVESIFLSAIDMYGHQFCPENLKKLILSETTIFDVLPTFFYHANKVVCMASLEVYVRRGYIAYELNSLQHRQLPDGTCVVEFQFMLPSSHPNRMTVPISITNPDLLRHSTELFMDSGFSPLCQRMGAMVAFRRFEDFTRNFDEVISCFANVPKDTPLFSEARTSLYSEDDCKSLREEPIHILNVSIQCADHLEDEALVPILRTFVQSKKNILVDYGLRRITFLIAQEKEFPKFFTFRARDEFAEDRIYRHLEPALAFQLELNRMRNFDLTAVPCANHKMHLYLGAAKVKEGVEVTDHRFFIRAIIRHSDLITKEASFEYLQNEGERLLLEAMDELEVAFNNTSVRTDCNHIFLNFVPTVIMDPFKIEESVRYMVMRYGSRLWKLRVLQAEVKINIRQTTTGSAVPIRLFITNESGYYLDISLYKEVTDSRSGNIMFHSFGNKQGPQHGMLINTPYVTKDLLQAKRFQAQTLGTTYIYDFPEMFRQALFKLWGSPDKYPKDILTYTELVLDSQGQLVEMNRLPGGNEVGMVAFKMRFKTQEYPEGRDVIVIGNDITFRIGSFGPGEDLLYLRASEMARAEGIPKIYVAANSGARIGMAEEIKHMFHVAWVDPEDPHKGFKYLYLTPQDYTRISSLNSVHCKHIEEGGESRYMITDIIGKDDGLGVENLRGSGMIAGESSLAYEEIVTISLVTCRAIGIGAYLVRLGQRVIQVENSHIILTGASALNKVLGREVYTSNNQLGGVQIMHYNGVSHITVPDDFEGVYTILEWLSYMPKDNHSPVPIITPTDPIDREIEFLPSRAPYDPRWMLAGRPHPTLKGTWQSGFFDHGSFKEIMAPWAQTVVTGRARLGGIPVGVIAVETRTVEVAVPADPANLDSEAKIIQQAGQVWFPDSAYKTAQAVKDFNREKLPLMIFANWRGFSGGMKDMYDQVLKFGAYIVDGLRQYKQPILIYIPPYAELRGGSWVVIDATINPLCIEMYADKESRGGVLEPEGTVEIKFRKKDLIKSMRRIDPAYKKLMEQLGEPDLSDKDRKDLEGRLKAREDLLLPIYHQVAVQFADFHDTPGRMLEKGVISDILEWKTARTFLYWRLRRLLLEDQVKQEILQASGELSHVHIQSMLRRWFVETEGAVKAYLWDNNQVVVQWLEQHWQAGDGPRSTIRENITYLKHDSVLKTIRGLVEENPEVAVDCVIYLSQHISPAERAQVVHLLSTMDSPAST

Molecules are shown by their SMILES.

In general, IC50 refers to the midpoint of a concentration-inhibition curve. Take `C=CCNC(=O)C(C)c1ccc(O[C@@H]2CCN(c3nc(N(C)C)ncc3F)C2)cc1` (stereo partly shown): the 50% inhibitory concentration (IC50) worked out at 620 nM.

The record behind these values is US9278954B2, “Pyrrolidine derivatives, pharmaceutical compositions and uses thereof” (Boehringer Ingelheim International GmbH, priority 2013, dated 2016).
